# According to PMC8067754, “Active Transport of Hepatotoxic Pyrrolizidine Alkaloids in HepaRG Cells” (International Journal of Molecular Sciences, 2021):
# Values joined by “and” are separate entries in the source; they are usually repeats but may differ in a detail not shown here. Equal entries are not always repeated.
# System: HepaRG cells
# Experiment: Time-dependent PA depletion and PANO formation in cell culture medium of HepaRG cells at 37 °C and 4 °C (LC-MS/MS)
# Conditions: for PA content in cell culture medium, Mean [%]: HepaRG, 700 nM PA, percent of initial PA concentration
# Description: In order to measure time-dependent depletion of PA and PANO content in cell culture medium, cells were seeded at a density of 0.2 × 10^6 cells per well in a 6-well plate and cultivated as described in Section 4.2. After four weeks of cultivation, cells were adapted to serum-free medium and medium substituted with insulin, transferrin, selenium (ITS) serum extender (Capricorn Scientific, Ebsdorfergrund, Germany) 48 h prior to PA incubation for optimal LC-MS/MS measurements. […] Samples were taken after 2 h, 4 h, 8 h and 24 h.
# Briefly, chromatographic separation of PA/PANO analytes was achieved on a 50 × 2.1 mm Kinetex ™ 2.6 μm CoreShell EVO C18 100 Å column protected by a SecurityGuard ™ ULTRA EVO C 18 2.1 mm guard column (both Phenomenex, Aschaffenburg, Germany) at a flow rate of 0.4 mL/min on a Shimadzu high performance liquid chromatography (HPLC) apparatus (LC-20AB, SIL-20AC HT, CTO-20AC, CBM-20A, Duisburg, Germany) coupled to an API4000 triple quadrupole MS (Sciex, Darmstadt, Germany). The following MS parameters were used for measurements in positive electrospray ionisation (ESI+) mode: ionisation voltage 2500 V, nebuliser gas 50 psi, heating gas 50 psi, curtain gas 30 psi, temperature 600 °C, collision gas level 7. The substance specific parameters are summarized in Kaltner et al. 2019 [79].
compound,measurement,setting,value
"CC(C)[C@](O)(C(=O)OCC1=CCN2CC[C@@H](O)[C@@H]12)[C@@H](C)O [Lycopsamine, lycopsamine]","PA content in cell culture medium, Mean [%]","4 °C (cold), 4h",111.556%
same,"PA content in cell culture medium, Mean [%]","4 °C (cold), 8h",112.264%
same,"PA content in cell culture medium, Mean [%]","4 °C (cold), 24h",108.52%
same,"PA content in cell culture medium, Mean [%]","37 °C (warm), 0h",113.456%
same,"PA content in cell culture medium, Mean [%]","37 °C (warm), 8h",108.305%
same,"PA content in cell culture medium, Mean [%]","37 °C (warm), 24h",117.807%
same,"PA in medium, single replicates (repl.)","cold, 2h",104.784% and 100.653%
same,"PA in medium, single replicates (repl.)","cold, 4h",93.1897% and 99.494%
same,"PA in medium, single replicates (repl.)","cold, 8h",102.472%
same,"PA in medium, Mean [%]","cold, 24h",93.4772%
same,"PA in medium, single replicates (repl.)","warm, 2h",96.4897% and 102.606%
same,"PA in medium, single replicates (repl.)","warm, 4h",86.3336% and 104.251%
same,"PA in medium, single replicates (repl.)","warm, 8h",103.458%
same,"PA in medium, Mean [%]","warm, 24h",102.497%
same,"PA in medium, single replicates (repl.)","warm, 24h",106.777% and 108.062%
